Laboratory results from US8278105B2, “Induction, propagation and isolation of liver progenitor cells” (University of Southern California, priority 2008, dated 2012).

Test system: HES2 or HES3 cells
Assay: 3i-induction of hepatocyte-like cells from human ES cells; dosages of medium components examined
Assay type: cell-based
Settings: in combination of SU5402, PD184352 and CHIR99021
Protocol: HES2 or 3 cells were cultured for 5 days on MEF-feeders with 20% FCS hES medium in organ culture dishes. 20% FCS hES medium was replaced with 3i medium and cells were keeping culture in this medium for 3 days. Cells were detached as clumps by collagenase and feeder cells were removed by sedimentation in DMEM/F-12 medium.
Cells were seeded on MATRIGEL® (secreted gelatinous protein mixture) coated organ culture dish as 1 to 1 split and culture with 3i medium. After 3 to 5 days in culture, hepatoblast-like cells appeared. They were subsequently propagated using 3i or Kubota's medium following enzymatic dissection.
Organ culture dishes seeded with Mouse embryo fibroblast feeder cells Human embryonic stem cell medium containing 20% fetal calf serum (2) 3i* or new 3i** medium • Neuro basal medium 50% • DMEM/F-12 50% • N2 supplement 1/200 v/v • B27 supplement 1/100 v/v • 100 mM L-glutamine 1/100 v/v • 0.1M β-ME 1/1000 v/v • *SU5402 (FGFR inhibitor) 2 μM • *P0184352 (ERK cascade inhibitor) 0.8 μM • **PD0325901 (MAPK inhibitor) 0.4 μM • CHIR99021 (GSK3 inhibitor) 3 μM • **Dorsomorphin (BMP cascade inhibitor) 2 μM
HES2 or 3 cells were cultured 5 days on MEF-feeders with 20% FCS hES medium in organ culture dishes. 20% FCS hES medium was replaced with 3i medium and cells were maintained in this medium for 2 days.
Cells were detached as clumps by collagenase and feeder cells were removed by sedimentation in DMEM/F-12 medium.
Cells were seeded on MATRIGELO® (secreted gelatinous protein mixture) coated organ culture dish as 1 to 1 split and culture with 3i medium.
After 3 to 5 day culture, the hepatocyte-like cells appeared.

Q: For `Cc1c[nH]c(-c2cnc(NCCNc3ccc(C#N)cn3)nc2-c2ccc(Cl)cc2Cl)n1` [CHIR99021], which “effect on hepatic differentiation/growth” value (CHIR99021 1.5 μM) is on record?
A: Its value is “dramatically decreased hepatic differentiation/growth”.

Q: And the “effect on hepatic differentiation/growth” value (CHIR99021 3 μM)?
A: Its value is “most efficient”.

Q: What about the “effect on hepatic differentiation/growth” value (CHIR99021 6 μM) of the same compound?
A: The value was “some kind of non-hepatic cells grow very well”.
